Literature values as cited in patent US20150274787A1, “METHOD FOR RECOMBINANT PRODUCTION OF LABYRINTHOPEPTINS AND FUNCTIONAL DERIVATIVES THEREOF” (priority 2011, published 2015).

Conditions: earlier biological characterization; cited from earlier work

## CC(C)C[C@@H]1NC(=O)[C@]23CSC[C@H](NC(=O)[C@H](C)NC(=O)[C@H](Cc4ccccc4)NC1=O)C(=O)N[C@H](C(=O)O)CSSC[C@H](NC(=O)[C@@H]1CSC[C@]4(C[C@H](N)C(=O)N[C@@H](CC(=O)O)C(=O)N[C@@H](Cc5c[nH]c6ccccc56)C(=O)N4)C(=O)N[C@@H](CC(C)C)C(=O)N[C@@H](Cc4c[nH]c5ccccc45)C(=O)N[C@@H](CCC(=O)O)C(=O)N1)C(=O)N[C@@H](C2)C(=O)N[C@@H]([C@@H](C)O)C(=O)NCC(=O)N3 [LabA2]
  efficacy in an in vivo neuropathic pain model: revealed an efficacy
